# ChEMBL document CHEMBL1149134, “2-aminothiazole-derived opioids. Bioisosteric replacement of phenols” (J Med Chem, 2004)
# Amino acid sequences for entries named in this document (tags omitted). A change or cut given only in a name is not applied to a line headed by its entry.
# UniProt P41145: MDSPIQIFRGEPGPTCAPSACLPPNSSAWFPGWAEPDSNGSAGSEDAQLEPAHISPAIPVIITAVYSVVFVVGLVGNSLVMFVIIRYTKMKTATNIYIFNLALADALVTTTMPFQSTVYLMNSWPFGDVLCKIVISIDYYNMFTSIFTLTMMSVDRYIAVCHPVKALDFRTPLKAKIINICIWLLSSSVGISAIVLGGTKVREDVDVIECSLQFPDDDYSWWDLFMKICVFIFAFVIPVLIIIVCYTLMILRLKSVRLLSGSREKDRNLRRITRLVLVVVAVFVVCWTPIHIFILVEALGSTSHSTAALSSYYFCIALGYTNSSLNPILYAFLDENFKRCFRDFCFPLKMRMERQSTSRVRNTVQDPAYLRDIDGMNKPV
# UniProt P35372, whole entry: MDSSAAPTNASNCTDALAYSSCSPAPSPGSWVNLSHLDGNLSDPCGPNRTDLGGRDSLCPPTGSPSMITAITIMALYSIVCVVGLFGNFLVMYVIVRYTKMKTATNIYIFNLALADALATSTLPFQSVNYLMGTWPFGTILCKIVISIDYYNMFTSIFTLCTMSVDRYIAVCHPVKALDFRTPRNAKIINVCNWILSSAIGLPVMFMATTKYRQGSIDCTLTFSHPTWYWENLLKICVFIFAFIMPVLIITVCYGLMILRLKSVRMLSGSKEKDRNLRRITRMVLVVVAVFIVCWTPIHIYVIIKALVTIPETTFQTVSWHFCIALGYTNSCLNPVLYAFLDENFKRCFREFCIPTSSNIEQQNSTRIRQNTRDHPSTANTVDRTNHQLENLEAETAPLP
# Experiments:
# [1] = target: Kappa-type opioid receptor (Homo sapiens, UniProt P41145); test: Agonistic activity against kappa opioid receptor in Chinese hamster ovary membranes; format: functional, cell membranes, Cricetulus griseus
# Mu-type opioid receptor = Mu-type opioid receptor (Homo sapiens, UniProt P35372)
smiles,measurement,setting,value
Oc1ccc2c(c1)[C@@]13CCCC[C@H]1[C@@H](C2)N(CC1CC1)CC3 [CYCLORPHAN],EC50,[1],0.2 nM
Oc1ccc2c(c1)[C@@]13CCCC[C@H]1[C@@H](C2)N(CC1CCC1)CC3 [BUTORPHAN],EC50,Mu-type opioid receptor,1.6 nM
